The entries are a selection whose mix differs from that of the whole data set. The source made the active and inactive calls. Cut-off read from the data, not from the text of the source: active = inhibition above about 75%; inconclusive = no clear call, values can overlap the other calls; inactive = below that; tested in HMLE shEcad cells.

A short description of this assay: cancer stem cell viability inhibitors, primary screen, luminescence (AID 2717). Particulars: cancer stem cell-like cells viability, at 7.5 µM, stronger effect = higher value.
In the case of `Nc1ccc2c(ccc3cccnc32)n1.O=[N+]([O-])c1cc([N+](=O)[O-])c(O)c([N+](=O)[O-])c1`, the inhibition was inactive: -8.58%.
With `CP(=O)(OC12CC3CC(CC(C3)C1)C2)OC12CC3CC(CC(C3)C1)C2` the figure was inactive: 26.1%.
Regarding `CCOC(=O)c1ccc(NP(C)(=O)Oc2ccc(Cl)cc2)cc1` (centres undefined), the inhibition is inactive: -1.18%.
Regarding `O=C(Nc1cc([As](=O)(O)O)ccc1O)c1ccccc1`, the inhibition was inactive: -12.2%.
With `CC(C)(C)C(=O)NC(Sc1ccncn1)C(Cl)(Cl)Cl` (centres undefined) the figure was inactive: -15.6%.
With `O=C(O)CNc1ccc([As](=O)(O)O)cc1` the figure was inactive: -12.9%; with `O=[N+]([O-])c1cccc(NC2=NCC(CBr)S2)c1` (centres undefined), inactive: -10.5%; with `COc1ccc(OP(C)(=O)Nc2ccc(Br)cc2)cc1` (centres undefined), inactive: 14.3%.
With `COc1ccc(C2=NCC(CBr)S2)cc1` (centres undefined) the figure was inactive: 2.52%; with `CP(=O)(Oc1ccccc1)N1CCOC1=O` (centres undefined), inactive: -6.67%; with `CCc1nc2c(n1)c1c(non1O)c1c2no[n+]1[O-]`, inactive: 62.6%.
For `O=[N+]([O-])c1cc([N+](=O)[O-])c(CCNc2ccccc2)c([N+](=O)[O-])c1`, the inhibition was inactive: 17.6%.
With `O=[N+]([O-])c1cccc2n[nH]nc12` the figure was inactive: -3.9%; with `CC(=O)N1C2C3N(C(C)=O)C1C1N(C(C)=O)C(C(N1C(C)=O)N3C(C)=O)N2C(C)=O`, inactive: -4.67%.
`COc1ccccc1OP(C)(=O)Nc1c(C)n(C)n(-c2ccccc2)c1=O` (centres undefined): the inhibition was inactive: -6.02%.
With `O=C(OCCCN1CCCC1)C(O)(c1ccccc1)C1CCCCC1` (centres undefined) the figure was inactive: 2.07%; with `CCN(/C(=N/P(=O)(N1CCOCC1)N1CCOCC1)N1CCOCC1)c1ccc(OC)cc1`, inactive: -15.6%.
With `CP(=O)(Nc1ccc(Cl)cc1)Oc1ccc(F)cc1` (centres undefined) the figure was inactive: -2.17%.
Turning to `COc1ccccc1OP(C)(=O)Nc1ccccc1Br` (centres undefined), the inhibition is inactive: 13.9%.
With `Nc1ccc([As](=O)(O)c2ccc(N)cc2)cc1` the figure was inactive: -2.82%; with `C[N+]1=C2C=CC=CC=C2SC12C([N+](=O)[O-])=CC([N+](=O)[O-])=C[C-]2[N+](=O)[O-]` (centres undefined), inactive: 44.5%; with `CC1CCN(C(=O)Oc2c(Cl)cc(Cl)c3cccnc23)CC1`, inactive: 3.27%.
With `CN(C)C(=O)c1c([N+](=O)[O-])cc([N+](=O)[O-])cc1[N+](=O)[O-]` the figure was inactive: 2.25%; with `CC(C)=N/N=C(\N)N[N+](=O)[O-]`, inactive: -0.9%; with `CN(C)C(=O)OCCc1n(C)cc[n+]1C`, inactive: -4.92%.
With `CN(C(=O)Cc1ccc(Cl)c(Cl)c1)[C@H]1CCCC[C@H]1N1CCCC1` the figure was inactive: -0.887%; with `COc1ccccc1OP(C)(=O)Nc1ccc(Br)cc1` (centres undefined), inactive: -10.9%; with `Cc1ccc(N/C(=N/P(=O)(N2CCOCC2)N2CCOCC2)N2CCOCC2)cc1`, inactive: -5.93%.
For the molecule `NC(=O)c1cc([N+](=O)[O-])cc([N+](=O)[O-])c1N`, the inhibition is inactive: 3.89%.
With `CN1CCCC(OC(=O)C(c2ccccc2)c2ccccc2)C1` (centres undefined) the figure was inactive: -21.8%.
With `Clc1ccc(Cl)c(NC2=NCC(CBr)S2)c1` (centres undefined) the figure was inactive: -5.46%; with `COc1ccccc1OP(=O)(Nc1ccc(C)cn1)Oc1ccccc1OC`, inactive: -11.5%.
With `COc1ccc(OP(C)(=O)Nc2ccccn2)cc1` (centres undefined) the figure was inactive: -15.1%; with `Cc1ccc(OP(=O)(Nc2nccs2)Oc2ccc(C)cc2)cc1`, inactive: -11.2%; with `Oc1ccccc1CNc1ccccn1`, inactive: -8.2%.
As for `O=C(NC(Sc1ccncn1)C(Cl)(Cl)Cl)c1ccccc1` (centres undefined), the inhibition was inactive: -8.71%.
With `Cc1c2non([O-])c-2c(C)[n+](=O)[n+]1[O-]` the figure was inactive: 2.22%; with `Cc1c(NP(C)(=O)Oc2ccc(C(C)C)cc2)c(=O)n(-c2ccccc2)n1C` (centres undefined), inactive: -14.4%; with `Nc1cc(N)c2nonc2c1[N+](=O)[O-]`, inactive: -5.13%.
As to `CC(C)CC(=O)NC(Sc1ccc(Cl)cc1)C(Cl)(Cl)Cl` (centres undefined), the inhibition was inactive: -11.6%.
For `O=[N+]([O-])c1cc([N+](=O)[O-])c(Nc2ccccn2)c([N+](=O)[O-])c1`, the inhibition is inactive: 34.7%.
With `CCc1ccc(OP(C)(=O)O)cc1` the figure was inactive: -1.64%; with `CP(=O)(Nc1ccccn1)Oc1ccccc1` (centres undefined), inactive: -3.11%; with `COc1ccccc1OP(C)(=O)Nc1ccc(C)cc1C` (centres undefined), inactive: -8.17%.
With `O=P(Nc1nc2ccc(Cl)cc2s1)(c1ccccc1)c1ccccc1` the figure was inactive: 43.3%; with `Cc1cc(C)cc(OP(C)(=O)Nc2cccc(C(F)(F)F)c2)c1` (centres undefined), inactive: -10.7%.
Turning to `CC(=O)Nc1ccc([As](=O)(O)O)cc1`, the inhibition was inactive: -5.44%.
In the case of `O=C(O)c1ccccc1[As](=O)(O)O`, the inhibition is inactive: -1.17%.
For `COc1ccc(OP(C)(=O)Nc2ccccc2Br)cc1` (centres undefined), the inhibition is inactive: -4.41%.
With `Cc1cc(SC(NC(=O)c2ccc(F)cc2)C(Cl)(Cl)Cl)ncn1` (centres undefined) the figure was inactive: 22.3%; with `CCOP(=O)(Nc1ccccc1)OCC`, inactive: -17.3%; with `COc1ccccc1OP(C)(=O)Nc1ccc(C)c(C)c1` (centres undefined), inactive: -12.6%.
With `Cc1ccc(NP(=O)(Oc2ccccc2F)Oc2ccccc2F)nc1` the figure was inactive: -8.76%; with `CN(C(=O)Cc1ccc(Cl)c(Cl)c1)[C@H]1CCCC[C@@H]1N1CCCC1`, inactive: -11.5%; with `O=[N+]([O-])c1cc([N+](=O)[O-])c(CCN2CCOCC2)c([N+](=O)[O-])c1`, inactive: -0.576%.
With `Nc1cccc2ccc([As](=O)(O)O)cc12` the figure was inactive: -3.78%.
Take `CP(=O)(Nc1ccc(Cl)cc1Cl)Oc1ccccc1` (centres undefined): the inhibition was inactive: -4.13%.
With `CP(=O)(OCCOc1ccccc1)OCCOc1ccccc1` the figure was inactive: -8.33%; with `CCN(N=Nc1nonc1N)c1nonc1N`, inactive: -4.16%; with `c1ccc(-c2nn[nH]n2)c(-c2nn[nH]n2)c1`, inactive: -0.0447%.
With `Cc1ccc(NP(=O)(Oc2cccc(C)c2)Oc2cccc(C)c2)nc1` the figure was inactive: 0.157%.
With `CCOC(=O)NC(Sc1ccccc1)C(Cl)(Cl)Cl` (centres undefined) the figure was inactive: -5.87%.
Regarding `CCNC(=S)/N=C(\N)N[N+](=O)[O-]`, the inhibition was inactive: 5.07%.
Take `O=C(NC1CCS(=O)(=O)C1)NP(=S)(Oc1ccccc1)Oc1ccccc1` (centres undefined): the inhibition was inactive: 10.6%.

The record behind these values is PubChem BioAssay AID2717 (Broad Institute, 2010).
